Tests used:
Settings in all cases: both partners purified
[1] = target: T1, Escherichia coli RecO protein (E. coli, UniProt P0A7H3 1-242); test: ITC; SSB tetramer in 1:1 complex with (dT)70 titrated into RecO; buffer BTP pH 7.0, 200 mM NaCl, 37°C; N fixed to 4, K and ΔH per C-terminus
T1 construct: E. coli RecO, recombination mediator of the RecF pathway; source: E. coli BL21(DE3)pLysS, plasmid pMCSG7, purified (Ni-NTA, HiTrap Heparin HP) after His-tag cleavage with TEV protease
T1 sequence (looked up): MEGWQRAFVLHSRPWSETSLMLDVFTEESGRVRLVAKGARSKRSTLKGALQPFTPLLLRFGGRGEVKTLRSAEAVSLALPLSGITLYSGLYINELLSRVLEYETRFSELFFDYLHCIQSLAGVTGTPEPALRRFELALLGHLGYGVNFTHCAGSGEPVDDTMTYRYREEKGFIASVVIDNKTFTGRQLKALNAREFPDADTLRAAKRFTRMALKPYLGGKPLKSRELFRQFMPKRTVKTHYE

[2] = target: T1, Escherichia coli RecO protein; test: ITC; apo wtSSB tetramer and RecO, fits with N floated (RecO per SSB tetramer), told for 15, 25 and 37°C together; buffer BTP pH 7.0, 200 mM NaCl
[3] = target: T1, Escherichia coli RecO protein; test: ITC; apo SSB tetramer (8–10 μM) titrated into RecO (1 μM); buffer BTP pH 7.0, 200 mM NaCl, 37°C; N fixed to 4 RecO per tetramer, K and ΔH per C-terminus
[4] = target: T1, Escherichia coli RecO protein; test: ITC; SSB tetramer in 1:1 complex with (dT)70 titrated into RecO; buffer BTP pH 7.0, 200 mM NaCl, 15°C; N fixed to 4, K and ΔH per C-terminus
[5] = target: T1, Escherichia coli RecO protein; test: ITC; apo SSB tetramer (8–10 μM) titrated into RecO (1 μM); buffer BTP pH 7.0, 200 mM NaCl, 15°C; N fixed to 4 RecO per tetramer, K and ΔH per C-terminus
[6] = target: T1, Escherichia coli RecO protein; test: ITC; SSB tetramer–(dT)70 complex (9–10 μM) titrated into RecO (1 μM); buffer BTP pH 7.0, 200 mM NaCl, 25°C; N fixed to 4, K and ΔH per C-terminus
[7] = target: T1, Escherichia coli RecO protein; test: ITC; apo SSB tetramer (9–10 μM) titrated into RecO (1 μM); buffer BTP pH 7.0, 200 mM NaCl, 25°C; N fixed to 4 RecO per tetramer, K and ΔH per C-terminus
[8] = target: T1, Escherichia coli RecO protein; test: ITC; wtSSB–(dT)70 complex and RecO, fits with N floated (RecO per SSB tetramer), told for 15, 25 and 37°C together; buffer BTP pH 7.0, 200 mM NaCl

B1: Escherichia coli single stranded DNA binding protein (SSB), wild-type tetramer (natural protein, E. coli, UniProt P0AGE0 1-178, looked up)
chain: MASRGVNKVILVGNLGQDPEVRYMPNGGAVANITLATSESWRDKATGEMKEQTEWHRVVLFGKLAEVASEYLRKGSQVYIEGQLRTRKWTDQSGQDRYTTEVVVNVGGTMQMLGGRQGGGAPAGGNIGGGQPQGGWGQPQQPQGGNQFSGGAQSRPQQSAPAAPSNEPPMDFDDDIPF
notes: Homo-tetramer; used alone (apo) and in a 1:1 complex with (dT)70 (told apart by the assay); also called wtSSB; SSB tetramer
dH (per tip, ΔH/4) [1]: -5.3 ± 0.6 kcal/mol | stoichiometry N [2]: 3.4 to 4 | dH (per tip, ΔH/4) [3]: -8.3 ± 0.8 kcal/mol | dH (per tip, ΔH/4) [4]: -6.4 ± 0.2 kcal/mol | dH (per tip, ΔH/4) [5]: -9.8 ± 0.3 kcal/mol | dH (per tip, ΔH/4) [6]: -10.3 ± 0.2 kcal/mol | dH (per tip, ΔH/4) [7]: -9.4 ± 0.5 kcal/mol | stoichiometry N [8]: ~4

Source: paper PMC7145534, “Are the intrinsically disordered linkers involved in SSB binding to accessory proteins?” (Nucleic Acids Research, 2019)
